This is an account of results in patent US20090081314A1, “Glycemic Control, Diabetes Treatment, and Other Treatments with Acetyl Cholinesterase Inhibitors” (priority 2007, published 2009).

“Also recorded” adds a separate entry of the source.

The series is described as follows: Side effects of acetyl cholinesterase inhibitor treatment in patients (case studies).

In the case of `COc1cc2c(cc1OC)C(=O)C(CC1CCN(Cc3ccccc3)CC1)C2` (stereo not shown) [donepezil], the “side effects of treatment” value by setting is: (individual patient, donepezil 5 mg daily, increased to 10 mg daily) “no untoward side effects; also recorded: no negative side effects”; (individual patient, donepezil 5 mg orally daily) “no adverse side effects were noted; also recorded: no negative side effects; also recorded: without any negative side effects; also recorded: no untoward side effects; also recorded: tolerated the donepezil well; also recorded: no fevers, infections or untoward side effects; also recorded: no symptoms of diarrhea, nausea or polyuria; also recorded: with adverse side effects”; (patient nineteen, donepezil 2.5 mg three times a week) “no untoward side effects”. In addition, where the note is “patient twelve, donepezil 5 mg orally daily with oral hypoglycemic agents”, the episodes of hypoglycemia result was “no episodes of hypoglycemia”.
